Assay results as given in patent publication EP0174114A1, “Platinum complexes of ascorbic acid and ascorbic acid analogs” (priority 1984, dated 1986).

Test: Relative water solubility of the diastereomers
Format: physicochemical
Conditions: ratio of water solubility, R,R isomer versus S,S isomer
Excerpt: These two isomers are diastereomers, having different physical and chemical properties. The R,R isomer is less than 1/10 as water soluble as the S,S isomer. […] This affords a method of resolving racemic trans-dach into its R,R and S,S forms. As with the cis-dach complexes the isomers of [Pt(trans-dach)(ascorbate)] are highly water- stable.

For “[Pt(R,R-trans-dach)(ascorbate)].3H2O [[Pt(R,R-trans-dach)-(ascorbate)]]”, which “water soluble (relative to the S,S isomer)” value is on record?
The value was “less than 1/10”.
